According to patent US7030139B2, “Compounds” (AstraZeneca AB, priority 2001, dated 2006):
Only a part of the results on these compounds is given; other tests are left out.

By UniProt entry, the sequences of proteins in these tests, tags left out.
UniProt P34972, whole entry: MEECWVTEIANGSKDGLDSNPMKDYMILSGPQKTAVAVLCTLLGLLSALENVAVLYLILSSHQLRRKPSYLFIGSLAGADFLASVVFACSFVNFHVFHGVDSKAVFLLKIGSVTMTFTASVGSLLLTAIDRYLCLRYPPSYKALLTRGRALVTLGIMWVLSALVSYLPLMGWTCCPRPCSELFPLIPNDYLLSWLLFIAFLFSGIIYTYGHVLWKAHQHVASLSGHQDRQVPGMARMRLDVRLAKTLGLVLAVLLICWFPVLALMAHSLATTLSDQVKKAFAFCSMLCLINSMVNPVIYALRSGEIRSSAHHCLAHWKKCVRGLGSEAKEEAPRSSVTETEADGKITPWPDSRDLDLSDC

Columns and labels:
hCB2 [1] = biological target: T1, hCB2 (Homo sapiens, UniProt P34972); test: hCB2 receptor binding (3H-CP55,940 displacement, membranes); settings: read-out: hCB2 IC50, Table 2, human CB2 membranes
hCB2 [2] = biological target: T1, hCB2; test: hCB2 GTPγS binding; format: biochemical

`CCOc1ccc(Cc2nc3cc(N(C)C(=O)CC(C)C)ccc3n2C[C@H]2CCCN2)cc1` was tested, and the IC50 (hCB2 [1]) was 27 nM, the “Emax (%)” value (hCB2 [2]; Table 2, maximal stimulated binding defined with 1 μM Win 55,212-2) was 33% and the EC50 (hCB2 [2]; read-out: hCB2 EC50, Table 2, human CB2 membranes) was 9 nM.
